{"sequences": {"note": "Chains of the proteins cited; added tags and fusions are not shown. Lines headed by an entry give the natural chain unless they say otherwise; changes in a name come on top.", "UniProt P33533, whole entry, looked up": "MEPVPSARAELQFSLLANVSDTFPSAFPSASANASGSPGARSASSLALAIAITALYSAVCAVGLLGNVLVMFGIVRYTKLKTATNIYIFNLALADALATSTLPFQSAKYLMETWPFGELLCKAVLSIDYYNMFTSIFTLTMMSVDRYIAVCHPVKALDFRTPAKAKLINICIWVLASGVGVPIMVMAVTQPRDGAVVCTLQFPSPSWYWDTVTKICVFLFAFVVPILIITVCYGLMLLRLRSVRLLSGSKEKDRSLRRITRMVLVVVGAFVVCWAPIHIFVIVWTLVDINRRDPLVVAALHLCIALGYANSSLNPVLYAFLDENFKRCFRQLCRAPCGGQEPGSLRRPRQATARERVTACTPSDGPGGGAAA", "UniProt P34975": "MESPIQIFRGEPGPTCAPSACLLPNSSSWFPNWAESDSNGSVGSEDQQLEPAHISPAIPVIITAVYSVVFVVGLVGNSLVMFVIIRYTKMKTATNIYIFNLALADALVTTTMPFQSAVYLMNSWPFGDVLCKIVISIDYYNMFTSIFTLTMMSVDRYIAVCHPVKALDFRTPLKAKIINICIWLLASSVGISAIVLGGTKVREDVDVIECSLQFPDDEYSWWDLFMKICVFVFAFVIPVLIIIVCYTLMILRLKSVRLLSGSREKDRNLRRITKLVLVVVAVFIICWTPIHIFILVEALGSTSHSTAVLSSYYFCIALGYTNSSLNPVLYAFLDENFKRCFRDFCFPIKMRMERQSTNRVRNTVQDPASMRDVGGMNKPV", "UniProt P33535, whole entry, looked up": "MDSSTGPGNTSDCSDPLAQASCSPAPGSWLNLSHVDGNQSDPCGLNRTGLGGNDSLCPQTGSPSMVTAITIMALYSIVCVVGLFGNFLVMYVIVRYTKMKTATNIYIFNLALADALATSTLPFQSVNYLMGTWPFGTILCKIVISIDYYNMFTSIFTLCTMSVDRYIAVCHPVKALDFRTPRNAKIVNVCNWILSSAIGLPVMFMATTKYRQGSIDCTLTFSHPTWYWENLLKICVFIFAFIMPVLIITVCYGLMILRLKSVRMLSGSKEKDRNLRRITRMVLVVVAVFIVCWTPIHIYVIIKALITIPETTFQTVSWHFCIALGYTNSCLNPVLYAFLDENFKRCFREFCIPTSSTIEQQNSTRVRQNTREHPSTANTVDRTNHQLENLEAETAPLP"}, "source": "ChEMBL document CHEMBL1125523", "about": "“Novel indolodioxanes with antihypertensive effects: potent ligands for the 5-HT1A receptor” (J Med Chem, 1992)", "biological_target": "Opioid receptor (Rattus norvegicus, UniProt P33533+P34975+P33535)", "assay": "Compound was evaluated for the binding affinity towards opioid receptor from rat whole brain using [3H]etorpine (33.2 Ci/mmol,0.2nanoM)as radioligand"}
{"compound": "O=C(NCCCc1ccccc1)c1cc2c3c(ccc2[nH]1)OCC(CNCCCc1ccccc1)O3", "note": "(stereo not drawn)", "values": [{"measurement": "Ki", "value": 0.53, "unit": "µM"}]}
{"compound": "COC(=O)c1cc2c3c(ccc2[nH]1)OCC(CNCCCc1ccccc1)O3", "note": "(stereo not drawn)", "values": [{"measurement": "Ki", "value": 0.765, "unit": "µM"}]}
{"compound": "CCOC(=O)C1CCN(CC2COc3ccc4[nH]c(C(=O)OC)cc4c3O2)CC1", "note": "(stereo not drawn)", "values": [{"measurement": "Ki", "value": 2.43, "unit": "µM"}]}
